# Results published in patent US11162937B2, “Patient selection method for inflammation” (Purdue Research Foundation, priority 2013, dated 2021).
# Tested on: CIA mice
# Test: Collagen-induced arthritis (CIA) mice: ^99mTc-EC20 radioimaging, arthritis score and paw thickness under anti-inflammatory therapy
# Protocol: Collagen-induced arthritis (CIA) was initiated using established methods on 6-7 week old female DBA/1 mice (Jackson Laboratories) maintained on folate-deficient diet (Harlan-Teklad). Briefly, mice were immunized at the base of the tail with 100 μg bovine type II collagen emulsified in complete Freund's adjuvant (Chondrex, Inc., Redmond, Wash., USA). Mice were then boosted 21 days later with a similar injection of 100 μg bovine type II collagen emulsified in incomplete Freund's adjuvant. After four days, onset of arthritis was synchronized in all mice with an intraperitoneal injection of 25 μg lipopolysaccharide (LPS) dissolved in saline. Three days later mice were distributed equally across control and treatment groups (n=5). Healthy mice and disease control mice received daily intraperitoneal injections of 100 μL saline. […] Arthritis scores were assessed every other day by researchers blinded to the various treatment groups, using the following scoring system: 0=normal; 1=mild, but definite redness and swelling of the ankle or wrist, or apparent redness and swelling limited to individual digits, regardless of the number of affected digits; 2=moderate redness and swelling of ankle or wrist; 3=severe redness and swelling of the entire paw including digits; 4=maximally inflamed limb with involvement of multiple joints. A total score for each mouse was calculated by summing the scores for each of the four paws, allowing a maximum possible score of 16 per animal. Paw thickness was measured with calipers every other day starting on the first day of treatment. On day 3 of treatment, mice were anesthetized with isoflurane and imaged with ^99mTc-EC20 as described below. Mice were again imaged and then euthanized by CO2 asphyxiation on day 11 of treatment.
# ^99mTc-EC20 was prepared as previously described in C. P. Leamon, M. A. Parker, I. R. Vlahov, L. Xu, J. A. Reddy, M. Vetzel, N. Douglas, Synthesis and Biological Evaluation of EC20: A New Folate-Derived, ^99mTc-Based Radiopharmaceutical. Bioconjugate Chem. 13, 1200-1210 (2002), incorporated herein by reference. […]
substance,measurement,setting,value
abatacept: biologic therapy,"disease symptoms (arthritis score, paw swelling) relative to disease control",day 3 of therapy,no significant difference
same,uptake of ^99mTc-EC20 in the affected appendages relative to disease control,"day 3 of therapy, 150 μCi ^99mTc-EC20 i.p., imaged after 4 h",significantly less uptake
same,"disease symptoms / joint inflammation (arthritis score, paw thickness) relative to disease control",day 11 of therapy,significantly reduced inflammation
